# Reference: PubChem BioAssay AID588692 (Broad Institute, 2011)
# Only a part is listed here, and it is no random draw. Calls of active or inactive are those of the source.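 Rule for the calls: active = mean luciferase reporter signal, scaled so untreated is 0 and the glycosylation-blocking control 100, at or above a set limit in every replicate; inconclusive = mean reaches the limit but not every replicate does; inactive = mean below the limit.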
# Experiment: increase of ERlucT glycosylation luciferase signal, primary screen, N-linked glycosylation inhibitor project, D54 ERlucT cells, luminescence, set 2 (AID 588692);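 note: luciferase carries N-glycosylation sites so blocking glycosylation raises the light; 0% = median of neutral control wells and 100% = median of 100 nM tunicamycin wells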
# Conditions: 24 h, at 12.5 µM, active compounds read high, percent of 100 nM tunicamycin response
row,Compound,reporter increase
1,Cc1ccc(S(=O)(=O)N(CCCN)CCCc2c(C)nc(N)[nH]c2=O)cc1,inactive: -7.5%
2,CCCC1OP(=O)(Nc2ccccc2)OCC1CC (configuration not stated),inactive: 0.301%
3,O=C(/C=C/c1ccccc1)OC1CN2CCC1CC2 (configuration not stated),inactive: -4.54%
4,CN(C)C1(CNC(=O)c2ccc(S(C)(=O)=O)cc2)CCCCC1,inactive: 0.299%
5,CC1CCC(C(C)C)C(OP(=O)(Nc2ccccn2)c2ccccc2)C1 (configuration not stated),inactive: -7.32%
6,Cc1ccc(C(=O)OC2CN3CCC2CC3)cc1 (configuration not stated),inactive: -0.968%
7,Cc1nn(-c2ccccc2)c2c1P(=O)(N1CCOCC1)N(C)C(c1ccccc1)=N2 (configuration not stated),inactive: 0.367%
8,O=[N+]([O-])c1ccc(Nc2ccc(Oc3ccc([N+](=O)[O-])cc3[N+](=O)[O-])cc2)c([N+](=O)[O-])c1,inactive: 9.56%
9,O=P(Nc1ccccn1)(c1cccc2ccccc12)c1cccc2ccccc12,inactive: -1%
10,Cc1cc(SC(NC=O)C(Cl)(Cl)Cl)ncn1 (configuration not stated),inactive: 2.1%
11,CCOC(=O)Nc1cccc([As](=O)(O)O)c1,inactive: 0.589%
12,Cc1cc(SC(NC(=O)c2ccccc2)C(Cl)(Cl)Cl)nc(C(C)C)n1 (configuration not stated),inactive: -0.755%
13,CCCCOc1ccc(C(=O)NCC2(N3CCCCC3)CCCCC2)cc1OC,inactive: -4.03%
14,COP(=O)(OC)N1CC1c1ccccc1 (configuration not stated),inactive: -0.198%
15,CC1CCNP(=O)(N(CCCl)CCCl)O1 (configuration not stated),inactive: 0.086%
16,CCOC(=O)Nc1ccc([As](=O)(O)O)c(O)c1,inactive: 0.698%
17,O=C(O)C(O)c1ccc(N(CCCl)CCCl)cc1 (configuration not stated),inactive: 0.97%
18,CCOC(=O)c1ccc(NC(=O)C(C)(CCl)SC)cc1 (configuration not stated),inactive: 3.22%
19,CSc1ccc(Nc2c([N+](=O)[O-])cc([N+](=O)[O-])cc2[N+](=O)[O-])cc1,inactive: 1.72%
20,O=C(OC1CN2CCC1CC2)c1cccc([N+](=O)[O-])c1 (configuration not stated),inactive: -4.07%
21,O=C(Nc1ccncc1[N+](=O)[O-])c1ccc([N+](=O)[O-])cc1[N+](=O)[O-],inactive: -7.86%
22,O=C(COc1ccccc1)OC1CN2CCC1CC2 (configuration not stated),inactive: 0.155%
23,O=C(O)C(=O)c1ccc(N(CCCl)CCCl)cc1,inactive: -0.264%
24,COC(=O)C1(C)COP(=O)(N2CCCC2)OC1 (configuration not stated),inactive: 0.848%

row,Compound,reporter increase
1,COP1(=S)c2c(C)nn(CCC#N)c2N=C(c2ccc(F)cc2)N1C (configuration not stated),inactive: 2.64%
2,COc1ccc(N/C(=N/P(=O)(N2CCOCC2)N2CCOCC2)N2CCOCC2)cc1,inactive: 1.42%
3,O=[N+]([O-])c1cc(Oc2ccc([N+](=O)[O-])cc2C(F)(F)F)cc([N+](=O)[O-])c1,inactive: -1.73%
4,COc1cc(I)ccc1[As](=O)(O)O,inactive: 0.129%
5,COc1ccc2nc(NP(=O)(c3ccccc3)c3ccccc3)sc2c1,inactive: 0.279%
6,O=P1(N(CCCl)CCCl)OCCCN1CCCl (configuration not stated),inactive: 1.39%
7,O=P1(N(CCCl)CCCl)Nc2ccccc2N1,inactive: -0.745%
8,Cc1cc(=O)[nH]c(N[N+](=O)[O-])n1,inactive: 0.704%
9,O=C(OC1CN2CCC1CC2)C12CC3CC(CC(C3)C1)C2 (configuration not stated),inactive: 3.4%
10,Cc1c2c(nc3ccccc13)SC(C(Cl)Cl)C2 (configuration not stated),inactive: 1.35%
11,O=[N+]([O-])c1cc([N+](=O)[O-])c(-c2ccn[nH]2)s1,inactive: 3.84%
12,CCN(CC)C(=S)SC(NC=O)C(Cl)(Cl)Cl (configuration not stated),inactive: 1.04%
13,O=C(OC1CN2CCC1CC2)c1cccc2[nH]cnc12 (configuration not stated),inactive: -5.31%
14,CC(C)NC(=O)NP(=O)(Oc1ccccc1)Oc1ccccc1,inactive: -1.91%
15,CC(C)c1ccc(OP(=O)(Nc2ccccn2)Oc2ccccc2F)cc1 (configuration not stated),inactive: -3.35%
16,COC(=O)C1(C)COP(=O)(N2CCCCCC2)OC1 (configuration not stated),inactive: -7.7%
17,ClCCSc1nnc(-c2cccnc2)o1,inactive: 1.77%
18,Cc1ccc2nc3c(c(C)c2c1)CC(C(Cl)Cl)S3 (configuration not stated),inactive: 1.09%
19,Cc1ccc(OP(=O)(Nc2ccc([N+](=O)[O-])cn2)Oc2ccc(C)cc2)cc1,inactive: -1.21%
20,COc1cc(C(=O)NCC2(N3CCOCC3)CCCCC2)ccc1OCC(C)C,inactive: -6.36%
21,O=[N+]([O-])c1ccc(-c2cc([N+](=O)[O-])c(O)c([N+](=O)[O-])c2)cc1,inactive: 0.385%
22,O=[As](O)(c1ccc(O)cc1)c1ccccc1O,inactive: 2.35%
23,C[As](=O)(O)c1cccc(C(=O)O)c1,inactive: 1.75%
